## AlphaSeq binding of Ab-14 light chain variants to a spike HR2 peptide

Source: Engelhart et al. 2022 (doi:10.1038/s41597-022-01779-4), MIT Lincoln Laboratory and A-Alpha Bio; data file from the FLAb repository.

All variants were tested on one target, the spike HR2 peptide PDVDLGDISGINAS (SARS-CoV-2).

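The parent was found by panning a naive human phage display library on the peptide. Variants in AAYL50 differ from the parent at up to three CDR positions; double and triple changes were sampled at random. In AlphaSeq, yeast of one mating type display the scFv and yeast of the other type display the target. Mating (16 h, 30 °C) was followed by selection of diploids and sequencing of their barcodes. Each replicate has its own calibration line, from reference interactions of the BCL2 family. Mating was done three times.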

Each scFv is VH, a 15-residue (Gly4Ser)3 linker, VL, as in the parent Ab-14, and differs from it in the CDRs of the light chain only.
VH: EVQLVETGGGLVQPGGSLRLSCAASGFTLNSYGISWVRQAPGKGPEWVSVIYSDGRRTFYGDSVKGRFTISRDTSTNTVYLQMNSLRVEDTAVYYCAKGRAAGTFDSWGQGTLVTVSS
VL: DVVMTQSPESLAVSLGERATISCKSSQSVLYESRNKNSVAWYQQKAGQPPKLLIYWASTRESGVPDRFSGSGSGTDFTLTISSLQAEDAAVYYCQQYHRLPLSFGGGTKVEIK

Positions count from residue 1 of the parent VL; S25Q puts Q in place of S. Every variant below is changed at S26 of the VL (sequential numbering). Numbers give log10(Kd / nM), so 0 is 1 nM and 3 is 1 µM. Smaller is tighter. Averages over replicates are reported, and they cover detected replicates only. A pair that was not seen in any replicate is written "nd"; this usually means weak binding, but a binder can also be missed. Three control strains display no target. For library AAYL50, 18% of the pairings with them gave a signal, with a median of 4.19 and one signal in twenty below 2.99, so weak values seen in few replicates may be background. Also given: how often the same scFv was detected with the empty control strains.

- S25Q/S26P/Q96N -> 0.89 (3 of 3 replicates; controls 2 of 9)
- S26T/E32N -> 1.31 (3 of 3 replicates; controls 0 of 9)
- S26M/A57Q/S58M -> 4.91 (1 of 3 replicates; controls 2 of 9)
- S26Y/W56C/S58Q -> nd (0 of 3 replicates; controls 0 of 9)
- S26K/E32G/S33D -> 0.61 (3 of 3 replicates; controls 0 of 9)
- S25K/S26C/S103M -> nd (0 of 3 replicates; controls 0 of 9)
- S26R/Q95S/P101M -> nd (0 of 3 replicates; controls 4 of 9)
- S26N/E32T/V39T -> 6.27 (1 of 3 replicates; controls 2 of 9)
- S26P/S62G/Y97P -> 3.76 (1 of 3 replicates; controls 0 of 9)
- S26K/R60V/R99Y -> 3.56 (2 of 3 replicates; controls 3 of 9)
- S26Q/S103W -> 1.50 (3 of 3 replicates; controls 2 of 9)
- S26C/R34N -> 1.68 (3 of 3 replicates; controls 9 of 9)
- S26V/A40T/Y97G -> 4.45 (1 of 3 replicates; controls 3 of 9)
- S26A/K36C -> 1.33 (3 of 3 replicates; controls 1 of 9)
- S25R/S26T -> nd (0 of 3 replicates; controls 1 of 9)
- S26I/A57C -> 2.94 (1 of 3 replicates; controls 1 of 9)
- S26H/E32Y -> 2.53 (3 of 3 replicates; controls 4 of 9)
- S26Q -> 3.01 (1 of 3 replicates; controls 1 of 9)
- S26R/Q27V/E32T -> 1.32 (3 of 3 replicates; controls 0 of 9)
- S26Y/S33L/Y97F -> 4.09 (1 of 3 replicates; controls 2 of 9)
- S26D/S38A/Q95A -> 1.50 (3 of 3 replicates; controls 4 of 9)
- S26Q/A57T/Q96G -> 4.25 (3 of 3 replicates; controls 3 of 9)
- S26T/H98R/L102E -> 2.44 (3 of 3 replicates; controls 2 of 9)
- S26H/N35I/S38R -> nd (0 of 3 replicates; controls 0 of 9)
- S26E/V39A -> 3.78 (1 of 3 replicates; controls 0 of 9)
- S26M/A40S/P101G -> nd (0 of 3 replicates; controls 0 of 9)
- S26I/N35W/R60Y -> nd (0 of 3 replicates; controls 1 of 9)
- S26Q/V39F/A57T -> 3.06 (3 of 3 replicates; controls 4 of 9)
- S26G/E32W/E61K -> nd (0 of 3 replicates; controls 0 of 9)
- S26H/H98A -> 0.63 (3 of 3 replicates; controls 9 of 9)
- S26A -> 0.79 (3 of 3 replicates; controls 1 of 9)
- S26Q/V39H/P101D -> nd (0 of 3 replicates; controls 1 of 9)
- S26Y/N37Q/S58R -> nd (0 of 3 replicates; controls 0 of 9)
- S26A/S28H/S62M -> 1.97 (3 of 3 replicates; controls 0 of 9)
- S26C/A40H/R99G -> 4.23 (2 of 3 replicates; controls 6 of 9)
- S26K/Q27L/E61Y -> 1.38 (3 of 3 replicates; controls 4 of 9)
- S26F/R60M -> 3.71 (2 of 3 replicates; controls 1 of 9)
- S26A/S38D/Q95L -> 2.65 (3 of 3 replicates; controls 0 of 9)
- S26E/L30T/Y97N -> nd (0 of 3 replicates; controls 0 of 9)
- S26Q/P101F/S103N -> 2.16 (3 of 3 replicates; controls 0 of 9)
- S26C/W56Q/P101L -> nd (0 of 3 replicates; controls 0 of 9)
- S26T/A40G/L100G -> nd (0 of 3 replicates; controls 1 of 9)
- S26W/Y97H -> 2.36 (3 of 3 replicates; controls 2 of 9)
- S26P/R34A/R60G -> 2.99 (1 of 3 replicates; controls 3 of 9)
- S26W/A57Q/P101W -> nd (0 of 3 replicates; controls 1 of 9)
- S26V/S58F/E61Q -> 2.28 (1 of 3 replicates; controls 1 of 9)

From the list, the first 5 with no signal in any replicate:

changes,"mean, log10 nM",detected,signal with controls
S26Y/W56C/S58Q,nd,0 of 3,0 of 9
S25K/S26C/S103M,nd,0 of 3,0 of 9
S26R/Q95S/P101M,nd,0 of 3,4 of 9
S25R/S26T,nd,0 of 3,1 of 9
S26H/N35I/S38R,nd,0 of 3,0 of 9